# Several values for one entry are separate records, joined by “and”; a condition that tells them apart may be missing. Identical values can stand only once.
# Amino acid sequences for entries named in this document (tags omitted).
# UniProt Q923Y9, whole entry: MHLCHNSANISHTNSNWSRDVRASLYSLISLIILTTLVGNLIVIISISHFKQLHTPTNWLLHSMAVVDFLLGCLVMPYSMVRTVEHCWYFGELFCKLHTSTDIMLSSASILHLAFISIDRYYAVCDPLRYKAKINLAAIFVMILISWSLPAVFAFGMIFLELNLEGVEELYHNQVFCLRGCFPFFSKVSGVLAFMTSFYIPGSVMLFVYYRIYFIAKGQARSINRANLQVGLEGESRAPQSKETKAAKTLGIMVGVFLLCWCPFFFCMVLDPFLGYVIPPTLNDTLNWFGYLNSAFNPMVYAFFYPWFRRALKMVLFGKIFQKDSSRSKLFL
# UniProt Q923Y8, whole entry: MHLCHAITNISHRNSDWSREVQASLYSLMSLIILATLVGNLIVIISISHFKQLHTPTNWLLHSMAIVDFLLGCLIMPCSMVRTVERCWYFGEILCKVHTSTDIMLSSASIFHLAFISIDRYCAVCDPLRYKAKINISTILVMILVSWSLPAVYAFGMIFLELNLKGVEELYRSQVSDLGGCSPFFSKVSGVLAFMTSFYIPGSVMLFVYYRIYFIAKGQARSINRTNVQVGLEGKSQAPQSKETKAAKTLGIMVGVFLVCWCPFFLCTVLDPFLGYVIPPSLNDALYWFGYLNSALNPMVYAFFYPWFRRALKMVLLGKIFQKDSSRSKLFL
# How the values were obtained:
# rTAAR1 = rTAAR1 (Rattus norvegicus, UniProt Q923Y9); experiment: [3H]RO5166017 radioligand binding, rTAAR1 membranes; details: competition binding
# mTAAR1 [1] = target: T1, mTAAR1 (Mus musculus, UniProt Q923Y8); experiment: [3H]RO5166017 radioligand binding, mTAAR1 membranes; details: Ki values
# mTAAR1 [2] = target: T1, mTAAR1; details: literature value; cited from earlier work
fold more potent at hTAAR1 compared to mTAAR1 (binding) (mTAAR1 [1]),SMILES,Effect on [3H]RO5166017 binding at rTAAR1 (rTAAR1),Reduction of mTAAR1-stimulated cAMP production (inverse agonist activity) (mTAAR1 [2])
463 fold,"N#Cc1c(C(F)(F)F)cc(-c2ccc(Cl)cc2)nc1SCC(=O)Nc1ncccn1 [Compound 34, 2-[[6-(4-chlorophenyl)-3-cyano-4-(trifluoromethyl)-2-pyridinyl]thio]-N-2-pyrimidinylacetamide]",potentiates [^3H]RO5166017 binding at rTAAR1,
,"CCOc1cccc(NC(=O)c2ccc(N3CCCC3)c(C(F)(F)F)c2)c1 [EPPTB, N-(3-ethoxyphenyl)-4-(pyrrolidin-1-yl)-3-trifluoromethylbenzamide]",,−12.3% and −12.3 ± 4.7%

# — publication PMC9730857 (ACS chemical neuroscience, 2022)
